According to ChEMBL document CHEMBL3991945, “TASPASE1 inhibitors and their uses” (2013):

Target: T1, Threonine aspartase 1 (Homo sapiens) (UniProt Q9H6P5)
T1 sequence (whole entry): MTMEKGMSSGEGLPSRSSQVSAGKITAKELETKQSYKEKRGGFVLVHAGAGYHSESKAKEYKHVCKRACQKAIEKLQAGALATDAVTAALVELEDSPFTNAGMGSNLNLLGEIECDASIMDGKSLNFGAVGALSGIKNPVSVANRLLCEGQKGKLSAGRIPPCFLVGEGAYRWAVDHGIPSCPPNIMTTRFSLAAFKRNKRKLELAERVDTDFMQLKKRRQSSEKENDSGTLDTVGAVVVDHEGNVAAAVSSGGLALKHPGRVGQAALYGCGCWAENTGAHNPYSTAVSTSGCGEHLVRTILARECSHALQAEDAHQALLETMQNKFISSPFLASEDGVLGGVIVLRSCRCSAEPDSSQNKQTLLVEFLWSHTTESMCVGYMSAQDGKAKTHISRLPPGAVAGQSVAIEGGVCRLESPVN
Details: 0.1 to 250 uM

CC(C)C[C@H](NC(=O)[C@H](Cc1ccccc1)NC(=O)c1cnccn1)B(O)O
inhibition: inactive

Activity calls are given as the source filed them. No cut-off for these calls is given here.
